The text below walks through data of ChEMBL document CHEMBL1126621 (J Med Chem, 1993).

The test is described as follows: Relative affinity for delta and kappa opioid receptors of guinea pig brain homogenate. The conditions noted are these: Cavia porcellus.

Molecule `CC[C@H](C)[C@H]1NC(=O)[C@H](CCCN=C(N)N)NC(=O)[C@@H](CCCN=C(N)N)NC(=O)[C@H](NC(=O)[C@@H]2Cc3ccccc3CN2C(=O)CNC(=O)CNC(=O)[C@@H](N)Cc2ccc(O)cc2)CSSC[C@H](C(=O)O)NC(=O)[C@H]2CCCN2C(=O)[C@H](CCCN=C(N)N)NC1=O` registered a Selectivity of 3.5.
